Yeast mating assay 2: variants of the scFv Ab-91

Data: MIT Lincoln Laboratory AlphaSeq set, Engelhart et al. 2022, doi:10.1038/s41597-022-01779-4, as distributed in FLAb.

Target peptide (SARS-CoV-2 spike, HR2 region): PDVDLGDISGINAS

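The starting antibody came from a phage panning campaign against this peptide. In library AAYL51, one, two or three CDR residues were substituted; doubles and triples were drawn at random. Affinity was read by AlphaSeq, a pooled yeast mating assay with surface-displayed partners. Binding brings cells together so that they mate, and sequencing counts the barcode pairs among the diploids. A regression on co-assayed BCL2-family reference pairs converts the normalised counts of each replicate to an apparent Kd. Each pool was mated in three replicate cultures.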

The variants keep the light chain, the linker and the frameworks of Ab-91 (scFv order VL, a (GGGGS)3 linker, VH).
VL: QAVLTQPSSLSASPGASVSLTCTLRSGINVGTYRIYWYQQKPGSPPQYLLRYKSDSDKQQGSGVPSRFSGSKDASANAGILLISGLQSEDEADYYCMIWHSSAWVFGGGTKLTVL
VH: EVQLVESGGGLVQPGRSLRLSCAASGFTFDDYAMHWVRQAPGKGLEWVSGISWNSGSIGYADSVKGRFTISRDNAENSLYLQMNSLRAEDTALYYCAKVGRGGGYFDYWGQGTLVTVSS

Positions count from residue 1 of the parent VH; I58R puts R in place of I.
Values are log10 of the apparent Kd in nM; lower means stronger binding.
A mean of the replicates is given; it leaves out those without a signal.
An entry "nd" has no value in the source: the pair was not observed among the diploids in any replicate. This suggests poor binding but is not conclusive.
As a blank, each scFv also met three strains without target: over library AAYL51, 21% of these pairings were detected, typically at 4.54 and seldom below 3.26.

| changes | log10 Kd (nM), mean | seen in |
|---|---|---|
| I58R+V99M+R101H | nd | 0 of 3 |
| F27N+D30K+S63M | nd | 0 of 3 |
| N54S+R101G+G102R | 4.67 | 1 of 3 |
| D31Q+V64G+G100I | nd | 0 of 3 |
| F27H+Y32T+F106Q | nd | 0 of 3 |
| H35S+V64R | nd | 0 of 3 |
| F27Q+D30S+Y108K | nd | 0 of 3 |
| G50K+R101I+G103V | nd | 0 of 3 |
| I58S+G59R+G100A | 5.77 | 1 of 3 |
| G26D+G50H+K65W | nd | 0 of 3 |
| F29C+S55V+G56R | 3.31 | 1 of 3 |
| D30R+D31P+S55T | 4.29 | 1 of 3 |
| M34L+G50V+G102T | 3.47 | 1 of 3 |
| I51H+R101S+D107F | 3.57 | 1 of 3 |
| I51E+N54M+G100K | nd | 0 of 3 |
| Y60R+D62Y+Y108D | 4.72 | 2 of 3 |
| A33S+Y60R+V64N | 5.45 | 2 of 3 |
| G26M+D62N+G102F | 4.50 | 1 of 3 |
| S52A+V64I | 1.43 | 3 of 3 |
| D30Q+S57E+F106Q | 1.67 | 3 of 3 |
| D30G+S52N+G104A | 3.50 | 1 of 3 |
| Y60G+S63C+Y105L | 4.81 | 1 of 3 |
| A61W+Y105A+F106I | nd | 0 of 3 |
| Y60K+D62P+K65N | 5.24 | 2 of 3 |
| G26E+D107S | nd | 0 of 3 |
| G26P+G50I+V64K | nd | 0 of 3 |
| T28I+I51N+Y105E | nd | 0 of 3 |
| W53G+D62N+K65L | 2.31 | 3 of 3 |
| G26M+K65A | 5.47 | 1 of 3 |
| Y32Q+R101K+G102L | nd | 0 of 3 |
| D30Q+D31V+M34N | 3.64 | 1 of 3 |
| T28A+N54L+G102K | 3.43 | 1 of 3 |
| A33K+M34I+I51L | nd | 0 of 3 |
| A33C+S52N+V64C | 4.60 | 1 of 3 |
| D30G+D31F+D62S | 1.88 | 3 of 3 |
| T28A+S57W+A61Y | nd | 0 of 3 |
| S52M+S63R+K65E | nd | 0 of 3 |
| S52H+S57N+G104E | nd | 0 of 3 |

Further variants, results first:

| log10 Kd (nM), mean | seen in | changes |
|---|---|---|
| 5.55 | 3 of 3 | S52M+N54F+K65P |
| 3.56 | 3 of 3 | S52T+S63G+Y108K |
| 4.88 | 3 of 3 | I58V+Y105N+D107S |
| nd | 0 of 3 | S63W+G103R+D107C |
| nd | 0 of 3 | F27E+G50D+F106T |
| nd | 0 of 3 | W53E+Y60M+V64L |
| 5.23 | 2 of 3 | Y32G+I58D+G102C |
| 5.34 | 2 of 3 | F27M+A33P+V64E |
| 5.32 | 3 of 3 | S52Q+G59I+V99P |
| nd | 0 of 3 | I58V+D107Y+Y108N |
| 5.01 | 1 of 3 | F27M+D31T+N54A |
| 5.29 | 2 of 3 | G26P+G50L+I58V |
| 5.21 | 2 of 3 | G26K+S55G+D107G |
| nd | 0 of 3 | I58K+Y60D+G103D |
| 1.15 | 3 of 3 | A61Q+G103L+Y105V |
| nd | 0 of 3 | D30W+K65W+Y105N |
| 5.65 | 1 of 3 | N54V+A61W+F106C |
| 5.42 | 2 of 3 | Y60K+S63A+V64S |
| 4.22 | 2 of 3 | Y32E+Y60N+Y108M |
| nd | 0 of 3 | V99R+G103D+G104D |
| 3.86 | 2 of 3 | S63T+G103V+Y108G |
| 2.64 | 3 of 3 | Y32H+Y105V+Y108C |
| 5.40 | 3 of 3 | F29P+D31Y+A33F |
| 4.88 | 3 of 3 | G50F+N54I+Y108M |
| nd | 0 of 3 | F27I+F106V+D107P |
| 4.59 | 1 of 3 | T28Y+Y32D+A61N |
| 2.73 | 2 of 3 | I58A+D62K+F106Q |
| nd | 0 of 3 | G59I+G104Q+D107R |
| nd | 0 of 3 | S52R+S57M+D107K |
| 0.24 | 3 of 3 | D31G+I58T |
| 4.45 | 2 of 3 | S52P+Y60D+R101V |
| 3.92 | 1 of 3 | T28P+I51K+S57Y |
| 4.04 | 2 of 3 | M34D+R101Q+D107P |
| 4.28 | 1 of 3 | G50T+G59R+D107H |
| 3.44 | 1 of 3 | F29D+S57G+A61W |
| 2.23 | 3 of 3 | T28H+G56M |
| 0.89 | 3 of 3 | G56V+K65I+R101A |
| 4.04 | 1 of 3 | D30S+M34N+G102D |
| nd | 0 of 3 | M34F+A61T+G104P |

Excerpt, the final 11 entries:

{"changes": "S52R+S57M+D107K", "log10 Kd (nM), mean": "nd", "seen in": "0 of 3"}
{"changes": "D31G+I58T", "log10 Kd (nM), mean": "0.24", "seen in": "3 of 3"}
{"changes": "S52P+Y60D+R101V", "log10 Kd (nM), mean": "4.45", "seen in": "2 of 3"}
{"changes": "T28P+I51K+S57Y", "log10 Kd (nM), mean": "3.92", "seen in": "1 of 3"}
{"changes": "M34D+R101Q+D107P", "log10 Kd (nM), mean": "4.04", "seen in": "2 of 3"}
{"changes": "G50T+G59R+D107H", "log10 Kd (nM), mean": "4.28", "seen in": "1 of 3"}
{"changes": "F29D+S57G+A61W", "log10 Kd (nM), mean": "3.44", "seen in": "1 of 3"}
{"changes": "T28H+G56M", "log10 Kd (nM), mean": "2.23", "seen in": "3 of 3"}
{"changes": "G56V+K65I+R101A", "log10 Kd (nM), mean": "0.89", "seen in": "3 of 3"}
{"changes": "D30S+M34N+G102D", "log10 Kd (nM), mean": "4.04", "seen in": "1 of 3"}
{"changes": "M34F+A61T+G104P", "log10 Kd (nM), mean": "nd", "seen in": "0 of 3"}

For reference, the parent read 1.86 as the reference entry and 0.88 as a member of this library.